# Earlier results as cited in publication PMC9318694 (Molecules, 2022).
# Protein sequences, listed by entry. Tags and fused reporters are not part of them. Lines headed by an entry give the natural chain unless they say otherwise; changes in a name come on top.
# UniProt P14416, whole entry: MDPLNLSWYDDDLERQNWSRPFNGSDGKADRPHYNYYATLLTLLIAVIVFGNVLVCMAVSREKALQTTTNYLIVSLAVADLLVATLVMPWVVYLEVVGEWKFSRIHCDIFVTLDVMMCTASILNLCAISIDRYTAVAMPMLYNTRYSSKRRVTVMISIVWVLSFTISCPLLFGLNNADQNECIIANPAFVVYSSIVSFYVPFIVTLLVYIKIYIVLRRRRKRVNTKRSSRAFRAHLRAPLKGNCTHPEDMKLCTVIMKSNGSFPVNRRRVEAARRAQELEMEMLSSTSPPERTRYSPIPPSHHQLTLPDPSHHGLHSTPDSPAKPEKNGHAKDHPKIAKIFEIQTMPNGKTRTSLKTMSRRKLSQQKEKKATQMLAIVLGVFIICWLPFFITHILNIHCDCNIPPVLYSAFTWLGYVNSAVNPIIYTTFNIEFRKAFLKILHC
# pKi: −log10 of the molar value. Like-named read-outs stand apart in the source and are kept apart here.
# Target: D2R (Homo sapiens, UniProt P14416)
# Conditions: cited from earlier work
SMILES,"pKi (Table S1, data set of actives, radio-ligand binding assays, ref ChEMBL, [50]-[70], read-out: KI)",pKi
"O=c1[nH]c2ccc(OCCCCN3CCC(c4cccc(Cl)c4Cl)CC3)cc2[nH]1 [SC4, 5-(4-(4-(2,3-dichlorophenyl)piperidin-1-yl)butoxy)-1,3-dihydro-2H-benzo[d]imidazol-2-one]",7.96,–
"CCCN(CCC)C1CCc2c(O)cccc2C1 (centres unmarked) [SC18, 5-OH-DPAT]",–,7.23
